Measured values published in patent publication US6362218B1, “Brefeldin A derivatives” (Purdue Research Foundation, priority 1997, dated 2002).

How the values were obtained:
Type in all cases: cell-based
[1] = test system: HOP-62; assay: NCI human cancer cell line screen, antiproliferative activity, Lung HOP-62; conditions: concentration corresponding to 50% growth inhibition, read-out: cytotoxicity GI50, Lung HOP-62
Experimental: (§1) The new synthesized brefeldin A prodrug candidates and analogs were examined for antiproliferative activity against human cancer cell lines in the National Cancer Institute screen, in which the activity of each compound was evaluated with approximately 55 different cancer cell lines of diverse tumor origins.

[2] = test system: HCT-116; assay: NCI human cancer cell line screen, antiproliferative activity, Colon HCT-116; conditions: concentration corresponding to 50% growth inhibition, read-out: cytotoxicity GI50, Colon HCT-116
Experimental: as §1

[3] = test system: UACC-62; assay: NCI human cancer cell line screen, antiproliferative activity, Melanoma UACC-62; conditions: concentration corresponding to 50% growth inhibition, read-out: cytotoxicity GI50, Melanoma UACC-62
Experimental: as §1

[4] = test system: OVCAR-3; assay: NCI human cancer cell line screen, antiproliferative activity, Ovarian OVCAR-3; conditions: concentration corresponding to 50% growth inhibition, read-out: cytotoxicity GI50, Ovarian OVCAR-3
Experimental: as §1

[5] = test system: DU-145; assay: NCI human cancer cell line screen, antiproliferative activity, Prostate DU-145; conditions: concentration corresponding to 50% growth inhibition, read-out: cytotoxicity GI50, Prostate DU-145
Experimental: as §1

[6] = test system: SN12C; assay: NCI human cancer cell line screen, antiproliferative activity, Renal SN12C; conditions: concentration corresponding to 50% growth inhibition, read-out: cytotoxicity GI50, Renal SN12C
Experimental: as §1

[7] = test system: MDA-MB-435; assay: NCI human cancer cell line screen, antiproliferative activity, Breast MDA-MB-435; conditions: concentration corresponding to 50% growth inhibition, read-out: cytotoxicity GI50, Breast MDA-MB-435
Experimental: as §1

Compound: Brefeldin A 8 0-Succinate [Compound 22]
- GI50 [1]: 3.4 µM
- GI50 [2]: 17 µM
- GI50 [3]: 1.9 µM
- GI50 [4]: 3.3 µM
- GI50 [5]: 6.8 µM

Compound: CC1CCCC=CC2CC(O)CC2C(O)C(SCCN(C)C)CC(=O)O1 [Compound 4, 2,3-Dihydro-(3R)-(2′-N,N-dimethylaminoethylthiol)brefeldin A]
- GI50 [1]: 0.54 µM
- GI50 [4]: 0.54 µM

Compound: CC1CCCC=CC2CC(O)CC2C(O)C(O)C(O)C(=O)O1 (stereo not drawn) [Compound 26, 2,3-Dihydro-2,3-dihydroxybrefeldin A]
- GI50 [2]: 3.4 µM

Compound: COC(=O)CS(=O)(=O)[C@@H]1CC(=O)OC(C)CCCC=CC2CC(O)CC2C1O (stereo partly drawn) [Compound 27, 2,3-Dihydro(3R)-(methoxycarbonylmethylsulfonyl)brefeldin A]
- GI50 [6]: 3.3 µM

Compound: CC1CCCC=CC2CC(O)CC2C(O)C(SCCN)CC(=O)O1 [Compound 9, 2,3-Dihydro-(3R)-(2′)-aminoethylthio)brefeldin A]
- GI50 [7]: 3.3 µM

Compound: CC1CCCC=CC2CC(O)CC2C(O)[C@H](Sc2ccc(O)cc2)CC(=O)O1 (stereo partly drawn) [Compound 3, 2,3-Dihydro-(3R)-(4′-hydroxyphenylthio)brefeldin A]
- GI50 [7]: 3.3 µM

Compound: COC(=O)CSC1CC(=O)OC(C)CCCC=CC2CC(O)CC2C1O [Compound 7, 2,3-Dihydro-(3R)-(methoxycarbonylmethylthiol)brefeldin A]
- GI50 [3]: 6.8 µM
